Reference: patent US20250332276A1, “Inhibitors of Molluscum Contagiosum Infection and Methods Using the Same” (priority 2022, published 2025)

Experiment: 3-Day Cell Viability Assay (cytotoxicity)
Conditions: read-out: CC50 (cytotoxicity)

With `CCC(C(=O)Nc1sc(C(N)=O)c(C)c1C(=O)OC)c1ccc(F)cc1` (stereo not shown) the CC50 was 103 µM.
